This note sets out measurements from patent US8895604B2, “Solid forms of (1r,4r)-6′-fluoro-N,N-dimethy1-4-phenyl-4′,9′-dihydro-3′ H-spiro-[cyclohexane-1,1′-pyrano-[3,4,b]indol]-4-amine hydrochloride” (dated 2014).

The nature of series [1]: TG-FTIR thermogravimetric analysis. To be noted: nitrogen, 10° C./min, 25 up to 350° C., hydrochloride.
Series [2] in a line: Suspension equilibration experiments. To be noted: suspended for several days in water at RT; Raman in the wet state.
A short description of series [3]: Dynamic vapour sorption (DVS). To be noted: 50→0→95→50% r.h. (2.5%/h).
A short description of series [4]: Storage at high relative humidity with FT-Raman / TG-FTIR.
The nature of series [5]: Physical and chemical stability on storage (HPLC purity, PXRD).
The nature of series [6]: Solubility in water (saturated solutions, HPLC). To be noted: RT.

A word on the solubility: it is how much of the substance goes into solution per volume. Low readings indicate little dissolved substance, high ones much dissolved substance.

Bounds are passed on as bounds.

As for “(1r,4r)-6′-fluoro-N,N-dimethyl-4-phenyl-4′,9′-dihydro-3′H-spiro[cyclohexane-1,1′-pyrano[3,4,b]indol]-4-amine hydrochloride [crystalline form G]”, the “temperature above which decomposition was observed” value in series [1] was > 350 °C.
The same measure, in the same setting: next, “(1r,4r)-6′-fluoro-N,N-dimethyl-4-phenyl-4′,9′-dihydro-3′H-spiro[cyclohexane-1,1′-pyrano[3,4,b]indol]-4-amine hydrochloride [crystalline form C]”: “above 270 °C”.
As to “(1r,4r)-6′-fluoro-N,N-dimethyl-4-phenyl-4′,9′-dihydro-3′H-spiro[cyclohexane-1,1′-pyrano[3,4,b]indol]-4-amine hydrochloride [crystalline form B]”, in series [2], the “conversion of crystalline form in suspension” value is “no conversion”. In addition, the “relative humidity above which strong water uptake occurs in DVS” value in series [3] is given as “above 74 % r.h”. For the same compound, the “temperature above which decomposition was observed” value in series [1] was “above 270 °C”. Moreover, the results for the “conversion of crystalline form on storage” value in series [4] (about 3 weeks at 97% r.h. at RT), in series [4] (more than 2 weeks at 75.5% r.h. at RT) and in series [4] (more than 2 weeks at 97% r.h. at RT) were “no conversion”, “No conversion” and “No conversion”, respectively.
Turning to “(1r,4r)-6′-fluoro-N,N-dimethyl-4-phenyl-4′,9′-dihydro-3′H-spiro[cyclohexane-1,1′-pyrano[3,4,b]indol]-4-amine hydrochloride [crystalline form D]”, the “temperature above which decomposition was observed” value in series [1] was “above 270 °C”.
As for “(1r,4r)-6′-fluoro-N,N-dimethyl-4-phenyl-4′,9′-dihydro-3′H-spiro[cyclohexane-1,1′-pyrano[3,4,b]indol]-4-amine hydrochloride [crystalline form E]”, the “temperature above which decomposition was observed” value in series [1] is “above 270 °C”.
In the case of `CN(C)[C@]1(c2ccccc2)CC[C@]2(CC1)OCCc1c3cc(F)ccc3[nH]c12`, the “Purity, 1 week at 80° C.” value in series [5] (closed vials, HPLC) was found to be 99.7 area %. Further, in series [5] (closed vials, change of PXRD pattern), the “PXRD, 1 week at 80° C.” value is given as “new peaks”. For the same compound, the “Purity, 4 weeks at 40° C., 75% r.h.” value in series [5] (open vials, HPLC) was determined as 99.5 area %. Besides, in series [5] (open vials, change of PXRD pattern), the “PXRD, 4 weeks at 40° C., 75% r.h.” value is listed as “new peaks”. In series [5] (reference, before storage, HPLC), the “Ref. Purity” value amounted to 99.7 area %. In addition, the “degradation after stability testing” value in series [5] (summary of both storage conditions (4 weeks 40° C./75% r.h.; 1 week 80° C.)) is listed as “clearly changes”. In series [6] (bidest H2O, saturated solution, 24 h equilibration time, HPLC), the solubility was <0.30 µg/mL. Further, the “resulting pH” value in series [6] (pH of the saturated solution in bidest H2O, 24 h) is reported as 8.4.
On to “(1r,4r)-6′-fluoro-N,N-dimethyl-4-phenyl-4′,9′-dihydro-3′H-spiro[cyclohexane-1,1′-pyrano[3,4,b]indol]-4-amine hydrochloride [crystalline form F]”, for which the “temperature above which decomposition was observed” value in series [1] was “above 270 °C”.
